## scFv variants of Ab-95 (light chain) against a SARS-CoV-2 spike peptide

Values reported by Engelhart et al. 2022, doi:10.1038/s41597-022-01779-4 (FLAb copy).

All variants were tested on one target, the spike HR2 peptide PDVDLGDISGINAS (SARS-CoV-2).

Ab-95 is the parent antibody, in scFv form: VH, then three GGGGS repeats, then VL. The heavy chain is unchanged in all variants.
VH: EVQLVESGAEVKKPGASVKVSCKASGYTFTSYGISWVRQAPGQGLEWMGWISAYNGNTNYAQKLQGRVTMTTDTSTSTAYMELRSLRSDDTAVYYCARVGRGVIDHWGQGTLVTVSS
VL: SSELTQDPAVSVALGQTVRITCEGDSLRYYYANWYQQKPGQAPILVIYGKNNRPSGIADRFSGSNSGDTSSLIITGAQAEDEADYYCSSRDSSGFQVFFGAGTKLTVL

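The starting antibody came from a phage panning campaign against this peptide. In library AAYL52, one, two or three CDR residues were substituted; doubles and triples were drawn at random. The scFvs were displayed on barcoded MATa yeast, the peptide on MATalpha yeast. Pairs that bind mate more often; barcode pairs of the diploids are counted by sequencing. A regression on co-assayed BCL2-family reference pairs converts the normalised counts of each replicate to an apparent Kd. The assay was run in three technical replicates.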

Positions count from residue 1 of the parent VL; Y29G puts G in place of Y.
Numbers give log10(Kd / nM), so 0 is 1 nM and 3 is 1 µM. Smaller is tighter.
The mean shown is taken over the replicates in which the pair was detected.
"ND" means that the variant was in the library but no mating with the target was seen in that replicate; the authors take this as a sign of poor binding, and no number exists.

| changes | log10 Kd, replicates | log10 Kd (nM), mean | control signals |
|---|---|---|---|
| Y29G N52F Q96G | 1.68 / 1.52 / 1.31 | 1.50 | 6/9 (4.28) |
| S55E S88V F95P | ND / ND / ND | ND | 2/9 (3.70) |
| Y29N Y31W G49K | 4.48 / ND / ND | 4.48 | 3/9 (3.51) |
| N52P P54A S92K | ND / ND / ND | ND | 0/9 |
| S88P R90T V97F | 3.47 / ND / ND | 3.47 | 1/9 (3.12) |
| A32F N51R | ND / ND / ND | ND | 0/9 |
| S26W A32G N52K | 4.82 / ND / ND | 4.82 | 3/9 (4.31) |
| R28L Y30Q S89Y | 3.22 / ND / ND | 3.22 | 3/9 (3.59) |
| Y30P G49I R90D | 4.31 / ND / ND | 4.31 | 0/9 |
| N33C G49D D91C | 3.09 / 2.92 / 2.35 | 2.79 | 5/9 (4.33) |
| K50H D91F F95L | ND / ND / ND | ND | 2/9 (4.46) |
| E23N S93W F95Q | 2.87 / 4.61 / 2.55 | 3.34 | 3/9 (3.96) |
| L27G N51R S89N | ND / ND / ND | ND | 0/9 |
| R28W P54W F98V | ND / ND / ND | ND | 1/9 (3.71) |
| G24R Y30T K50F | 3.10 / 2.91 / 3.58 | 3.20 | 2/9 (2.83) |
| G24P Y30D S93K | 3.91 / 3.07 / 2.72 | 3.23 | 5/9 (3.55) |
| G24Y N33P S92E | 2.03 / 2.14 / 3.03 | 2.40 | 2/9 (3.58) |
| D25G S89N Q96S | 2.75 / ND / ND | 2.75 | 0/9 |
| L27I S92G F95K | 3.25 / 2.90 / 3.57 | 3.24 | 2/9 (4.49) |
| D25S Y31F P54I | ND / 2.72 / 1.84 | 2.28 | 2/9 (4.07) |
| D25I R90I V97R | 4.02 / ND / ND | 4.02 | 4/9 (3.97) |
| Y30T K50L N51T | 2.66 / 2.22 / 2.74 | 2.54 | 3/9 (4.72) |
| L27D N33I V97C | 4.77 / 3.78 / 3.78 | 4.11 | 3/9 (3.74) |
| D25P R28D F95N | 2.94 / 2.69 / 2.34 | 2.66 | 1/9 (4.36) |
| S26M G49C D91C | 4.23 / ND / ND | 4.23 | 3/9 (3.75) |
| D25L R90E S92Y | 3.09 / 2.54 / 2.36 | 2.66 | 1/9 (3.53) |
| G24M Y31I S88K | ND / 4.21 / ND | 4.21 | 0/9 |
| E23C N51H V97A | 3.76 / ND / ND | 3.76 | 3/9 (3.90) |
| K50D V97A | 3.78 / 4.29 / 3.41 | 3.83 | 2/9 (3.09) |
| D25W R28H R53G | 4.44 / ND / ND | 4.44 | 6/9 (4.31) |
| L27G N51S S93K | ND / 4.63 / ND | 4.63 | 4/9 (3.95) |
| L27N Q96N V97R | 4.80 / 3.83 / 4.58 | 4.40 | 5/9 (4.01) |
| L27A Y29R P54R | 3.97 / ND / 3.17 | 3.57 | 4/9 (4.01) |
| A32K N51S S92L | 4.44 / 3.79 / 4.10 | 4.11 | 3/9 (4.86) |
| R28T Y30I A32D | 5.26 / ND / ND | 5.26 | 2/9 (4.25) |
| N33I K50V N51A | 5.29 / ND / 4.03 | 4.66 | 2/9 (4.36) |
| K50P N52V S88L | 3.50 / 2.72 / 4.11 | 3.44 | 1/9 (3.55) |
| R90S S93C | 2.42 / 2.07 / 1.89 | 2.13 | 2/9 (3.34) |
| G24W D25R Y30R | 3.19 / 3.84 / ND | 3.52 | 3/9 (3.64) |
| S89K S92G Q96K | 4.27 / ND / ND | 4.27 | 4/9 (4.06) |
| P54V S92E G94R | 4.00 / 3.07 / 3.71 | 3.59 | 4/9 (3.68) |
| G24N K50T R90H | ND / ND / ND | ND | 2/9 (3.30) |
| R28C K50N N52K | 3.26 / 2.44 / 2.50 | 2.73 | 3/9 (3.44) |
| Y30M K50L F95T | 2.28 / 2.16 / 2.07 | 2.17 | 5/9 (4.64) |
| Y31Q S55K V97Y | 2.85 / 2.88 / 2.58 | 2.77 | 4/9 (3.56) |
| Y30N R53G S89I | 2.01 / 1.97 / 1.82 | 1.93 | 3/9 (3.43) |
| Y31G S93D G94M | 3.04 / 3.08 / 2.82 | 2.98 | 4/9 (4.00) |
| G24N N51V | 4.93 / ND / ND | 4.93 | 2/9 (3.21) |
| L27R Y30C S89H | 3.88 / 5.41 / ND | 4.64 | 3/9 (4.16) |
| G24E Y29N | ND / ND / ND | ND | 1/9 (3.15) |
| R28W Y29M S88N | 3.89 / 2.69 / 3.56 | 3.38 | 5/9 (4.21) |

Background: pairings of library AAYL52 with three empty control strains gave a value in 28% of cases (median 3.91, 5th percentile 2.90). Values in that range, when seen in few replicates, are hard to tell from nonspecific mating. For each scFv, signals with the empty controls are counted beside the result, with their mean in brackets.
For reference, the parent read 2.31 as the reference entry and 2.25 as a member of this library.